The target in one data set is h5-HT2BR (Homo sapiens, UniProt P41595). The data set can be described thus: 5-HT-evoked Cai2+ release in h5-HT2BR-CHO cells. Conditions: compound 1 nM, added 15 min prior to 5-HT (10^−11 to 10^−6 M), 5-HT alone = 100%.
The next data set addresses h5-HT2AR (Homo sapiens, UniProt P28223). The data set can be described thus: 5-HT-evoked Cai2+ release in h5-HT2AR-CHO cells. Conditions: compound 1 nM, added 15 min prior to 5-HT (10^−11 to 10^−6 M), 5-HT alone = 100%.
The next data set concerns the target h5-HT2CR (Homo sapiens, UniProt P28335). In words: 5-HT-evoked Cai2+ release in h5-HT2CR-CHO cells. The conditions noted are these: compound 1 nM, added 15 min prior to 5-HT (10^−11 to 10^−6 M), 5-HT alone = 100%.
Another data set concerns hMDRI-MDCKII cells. The data set can be described thus: MDCK-MDR1 membrane permeability and efflux. Format: in vitro ADME.

Protein sequences, listed by entry. Tags and fused reporters are not part of them. Residues count along the entry.
UniProt P41595, whole entry: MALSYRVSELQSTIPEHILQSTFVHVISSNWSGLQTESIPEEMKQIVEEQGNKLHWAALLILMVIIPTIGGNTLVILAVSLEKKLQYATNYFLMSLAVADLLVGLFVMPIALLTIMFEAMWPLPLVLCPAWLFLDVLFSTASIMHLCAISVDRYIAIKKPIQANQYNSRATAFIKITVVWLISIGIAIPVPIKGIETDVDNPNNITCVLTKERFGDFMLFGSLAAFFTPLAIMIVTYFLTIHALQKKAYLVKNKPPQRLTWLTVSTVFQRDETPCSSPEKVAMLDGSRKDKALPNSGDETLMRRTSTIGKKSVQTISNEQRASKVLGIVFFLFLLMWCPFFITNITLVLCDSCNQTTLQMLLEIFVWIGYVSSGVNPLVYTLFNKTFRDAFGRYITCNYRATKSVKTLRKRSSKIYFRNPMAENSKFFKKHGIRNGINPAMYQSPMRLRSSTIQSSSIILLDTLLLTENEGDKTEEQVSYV
UniProt P28223, whole entry: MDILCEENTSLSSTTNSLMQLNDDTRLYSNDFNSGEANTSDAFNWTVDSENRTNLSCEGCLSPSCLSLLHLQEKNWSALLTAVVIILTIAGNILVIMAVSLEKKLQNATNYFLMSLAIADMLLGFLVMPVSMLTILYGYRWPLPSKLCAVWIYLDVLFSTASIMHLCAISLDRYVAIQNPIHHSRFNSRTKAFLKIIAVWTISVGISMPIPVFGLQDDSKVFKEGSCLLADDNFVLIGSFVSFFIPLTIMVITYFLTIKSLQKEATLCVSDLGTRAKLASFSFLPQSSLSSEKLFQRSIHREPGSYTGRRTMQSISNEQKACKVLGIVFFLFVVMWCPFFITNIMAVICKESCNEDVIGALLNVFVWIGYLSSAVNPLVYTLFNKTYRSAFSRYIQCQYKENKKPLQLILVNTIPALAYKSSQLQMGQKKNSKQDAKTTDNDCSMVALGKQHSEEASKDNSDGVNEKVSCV
UniProt P28335, 33-458: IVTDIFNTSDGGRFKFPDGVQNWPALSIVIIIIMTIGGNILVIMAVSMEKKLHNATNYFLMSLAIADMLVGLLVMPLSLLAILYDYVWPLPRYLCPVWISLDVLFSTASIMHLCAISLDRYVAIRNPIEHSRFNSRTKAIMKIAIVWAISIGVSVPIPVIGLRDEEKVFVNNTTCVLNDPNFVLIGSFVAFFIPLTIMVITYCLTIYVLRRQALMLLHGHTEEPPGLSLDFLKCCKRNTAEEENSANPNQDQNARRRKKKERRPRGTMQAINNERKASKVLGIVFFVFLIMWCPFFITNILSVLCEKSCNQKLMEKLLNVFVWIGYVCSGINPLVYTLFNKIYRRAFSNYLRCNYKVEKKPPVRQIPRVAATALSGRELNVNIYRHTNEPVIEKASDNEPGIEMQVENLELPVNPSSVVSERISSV

As to `CCCCCCCC/C=C\CCCCCCCC(=O)NC(CO)CO` [Compound 11, N-(1,3-Dihydroxypropan-2-yl)oleamide], the “Emax RFU (% 5-HT)” value on h5-HT2BR worked out at 97.17 ± 9.2 p = 0.7675 % 5-HT. On to `CCCCCCCC/C=C\CCCCCCCC(=O)N[C@@H](Cc1c[nH]c2ccccc12)C(=O)OC` [Compound 19, Methyl oleoyl-L-tryptophanate], for which the entries for the “Emax RFU (% 5-HT)” value on h5-HT2AR and on h5-HT2CR were 109.2 ± 3.5 % 5-HT and 125.4 % 5-HT, respectively. Turning to `CCCCCCCC/C=C\CCCCCCCC(=O)NC(CO)(CO)CO` [Compound 13, N-(1,3-dihydroxy-2-(hydroxymethyl)propan-2-yl)], in the data set on hMDRI-MDCKII cells, the “membrane permeability (in words)” value is listed as “moderate permeability”.

The record behind these values is patent publication US20250230125A1 (The Board of Regents of The University of Texas System, priority 2022, published 2025).
